Target: human mGluR5 (Homo sapiens, UniProt P41594)
Assay: Cell-based functional Ca2+ mobilization assay, potentiation of glutamate EC20 response (H10H cell-line)
Conditions: H10H cell-line expressing recombinant human mGluR5; for Emax (%): in presence of glutamate EC20, normalized to maximal glutamate response; for pEC50: potentiation in presence of glutamate EC20
Method: Human embryonic kidney (HEK) cells transfected with rat mGluR5 were plated in clear bottom assay plates for assay in a Functional Drug Screening System (FDSS). In the alternative assay, HEK cells transfected with human mGluR5 were plated for assay in the FDSS. In some cases the HEK cells transfected with human mGluR5 are the H10H cell line. Alternatively, the HEK cells transfected with human mGluR5 are the H12H cell line. […] The cells were loaded with a Ca^2+-sensitive fluorescent dye (e.g., Fluo-4), and the plates were washed and placed in the FDSS instrument. After establishment of a fluorescence baseline for about three seconds, the compounds of the present invention were added to the cells, and the response in cells was measured. Five minutes later, an mGluR5 agonist (e.g., glutamate, 3,5-dihydroxyphenylglycine, or quisqualate) was added to the cells, and the response of the cells was measured. Potentiation of the agonist response of mGluR5 by the compounds in the present invention was observed as an increase in response to non-maximal concentrations of agonist (here, glutamate) in the presence of compound compared to the response to agonist in the absence of compound.
The above described assay can be operated in two modes. In the first mode, a range of concentrations of the present compounds were added to cells, followed by a single fixed concentration of agonist. If a compound acted as a potentiator, an EC50 value for potentiation and a maximum extent of potentiation by the compound at this concentration of agonist was determined by non-linear curve fitting. In the second mode, several fixed concentrations of the present compounds were added to various wells on a plate, followed by a range of concentrations of agonist for each concentration of present compound; the EC50 values for the agonist at each concentration of compound were determined by non-linear curve fitting. A decrease in the EC50 value of the agonist with increasing concentrations of the present compounds (a leftward shift of the agonist concentration-response curve) is an indication of the degree of mGluR5 potentiation at a given concentration of the present compound. An increase in the EC50 value of the agonist with increasing concentrations of the present compounds (a rightward shift of the agonist concentration-response curve) is an indication of the degree of mGluR5 antagonism at a given concentration of the present compound. The second mode also indicates whether the present compounds also affect the maximum response to mGluR5 to agonists.
Human mGluR5a cDNA in pCMV6-XL6 mammalian expression plasmid was purchased from OriGene Technologies, Inc. (catalogue number SC326357) and subcloned into pcDNA3.1(−). Human embryonic kidney (HEK) 293A cells were then transfected with human mGluR5a pcDNA3.1(−) using LipofectAmine 2000 (Invitrogen) and monoclones were selected and tested for functional response using a Ca^2+ mobilization assay. Monoclones were named for the species (“H” for human) plus the location on the plate (e.g. “10H”).
HEK cells transfected with the human mGluR5a receptor were plated at 15,000 cells/well in clear-bottomed poly-D-lysine-coated assay plates (BD Falcon) in glutamate-glutamine-free growth medium and incubated overnight at 37° C. and 5% CO2. The cell-line used to obtain the data reported herein was the H10H cell-line expressing the human mGluR5 receptor. Although the H10H cell-line was used to obtain the data shown herein, the H12H cell-line expressing the human mGluR5 receptor can also be used in these assays. The following day, the growth medium was removed and the cells were washed with assay buffer containing 1× Hank's balanced salt solution (Invitrogen, Carlsbad, Calif.), 20 mM HEPES, 2.5 mM probenecid, pH 7.4 and left with 20 μL of this reagent. Following this step, the cells were loaded with calcium indicator dye, fluo-4 AM, to a final concentration of 2 μM and incubated for 40-45 min at 37° C. […]

The chains behind the UniProt entries cited, without tags or fusion partners. Residues count along the entry.
UniProt P41594, 21-1180 isoform 2 limits assumed: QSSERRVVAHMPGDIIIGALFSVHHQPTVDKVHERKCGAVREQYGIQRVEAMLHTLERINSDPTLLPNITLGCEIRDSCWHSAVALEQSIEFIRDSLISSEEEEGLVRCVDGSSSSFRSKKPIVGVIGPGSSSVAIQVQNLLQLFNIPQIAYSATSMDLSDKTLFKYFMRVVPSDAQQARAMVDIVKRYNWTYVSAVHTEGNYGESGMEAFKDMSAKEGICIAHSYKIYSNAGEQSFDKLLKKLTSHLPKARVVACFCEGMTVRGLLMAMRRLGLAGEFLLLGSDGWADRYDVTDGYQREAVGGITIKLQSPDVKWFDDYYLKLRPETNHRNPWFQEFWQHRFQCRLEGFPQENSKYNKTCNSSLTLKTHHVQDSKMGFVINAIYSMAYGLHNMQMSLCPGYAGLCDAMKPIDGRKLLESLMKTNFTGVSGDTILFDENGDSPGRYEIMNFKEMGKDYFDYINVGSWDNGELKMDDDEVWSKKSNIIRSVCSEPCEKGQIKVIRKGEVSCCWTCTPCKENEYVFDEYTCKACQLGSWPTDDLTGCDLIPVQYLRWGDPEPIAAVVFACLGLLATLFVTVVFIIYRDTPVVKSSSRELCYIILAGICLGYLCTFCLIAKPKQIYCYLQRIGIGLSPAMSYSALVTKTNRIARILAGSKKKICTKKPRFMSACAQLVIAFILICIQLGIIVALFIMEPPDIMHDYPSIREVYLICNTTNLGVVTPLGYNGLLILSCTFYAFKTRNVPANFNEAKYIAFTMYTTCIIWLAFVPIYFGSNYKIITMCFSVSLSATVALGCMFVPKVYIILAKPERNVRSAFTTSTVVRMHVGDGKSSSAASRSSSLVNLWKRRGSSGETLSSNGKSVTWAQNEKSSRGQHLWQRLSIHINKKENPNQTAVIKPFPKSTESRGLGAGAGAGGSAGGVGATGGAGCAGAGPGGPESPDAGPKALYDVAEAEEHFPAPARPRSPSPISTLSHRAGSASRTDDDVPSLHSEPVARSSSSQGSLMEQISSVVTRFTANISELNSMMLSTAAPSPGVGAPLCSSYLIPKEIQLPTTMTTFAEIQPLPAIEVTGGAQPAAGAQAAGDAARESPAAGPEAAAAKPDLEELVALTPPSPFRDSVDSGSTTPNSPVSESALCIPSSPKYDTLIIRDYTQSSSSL

SMILES	Emax (%)	pEC50
Cn1cc(C(=O)N2CCc3nc(COc4ccccc4)oc3C2)c2ccccc21	70	6.54
O=C(c1ccc(F)cc1)N1CCc2nc(COc3cncnc3)oc2C1	28	<5
CCc1ccc(C(=O)N2CCc3nc(COc4ccccc4)oc3C2)o1	56	6.37
Cc1cc(C)c(C(=O)N2CCc3nc(COc4ccccc4)oc3C2)o1	45	6.77
